Only a part is listed here, and it is no random draw. Records with an inconclusive call do not appear. Calls of active or inactive are those of the source. Calls follow the shape of the dose curve; as a rule, active = well fitted cell-killing curve with a large enough effect; inconclusive = small, poorly fitted or top-dose-only effect, or effect the other way; inactive = no such curve, though single readings can be large or run the other way.
Test: Viability Counterscreen for Primary qHTS for Inhibitors of ATXN expression; also: nearly all actives have a fitted effect of over 40% in size
Conditions: S2 cells (HEK-293 line with an ATXN2-luciferase reporter) viability, CellTiter-Fluor protease fluorescence, 24 h; series mostly up to 56.7 µM; activity change, negative = cytotoxicity: at the top concentration
With CCCCCCCCCCCCCCCC1C[N+](C)(C)CCOP(C)(=O)O1 (centres undefined) the “activity change, negative = cytotoxicity” value was inactive: -26.5%.
With CP(=O)(Nc1ccc(Cl)cc1Cl)Oc1ccccc1 (centres undefined) the “activity change, negative = cytotoxicity” value was inactive: -3.96%.
For Cc1cc(C)cc(OP(C)(=O)Nc2cccc(C(F)(F)F)c2)c1 (centres undefined), the “activity change, negative = cytotoxicity” value was inactive: -14.6%.
In the case of COc1ccc(OP(C)(=O)Nc2ccccc2Br)cc1 (centres undefined), the “activity change, negative = cytotoxicity” value is reported as inactive: -18.3%.
With COc1ccccc1OP(C)(=O)Nc1ccc(C)c(C)c1 (centres undefined) the “activity change, negative = cytotoxicity” value was inactive: -21.1%.
In the case of CCc1ccc(OP(C)(=O)O)cc1, the “activity change, negative = cytotoxicity” value is reported as inactive: 2.18%.
For COc1ccccc1OP(C)(=O)Nc1ccc(C)cc1C (centres undefined), the “activity change, negative = cytotoxicity” value was inactive: -26.3%.
With CP(=O)(Nc1ccccn1)Oc1ccccc1 (centres undefined) the “activity change, negative = cytotoxicity” value was inactive: -7.19%.
With COc1ccccc1OP(C)(=O)Nc1ccc(Br)cc1 (centres undefined) the “activity change, negative = cytotoxicity” value was inactive: -12%.
With CN(C)CCOC(=O)C(O)(c1ccccc1)C1CCCC1 (centres undefined) the “activity change, negative = cytotoxicity” value was inactive: -28.1%.
In the case of COc1ccc(OP(C)(=O)Nc2ccccn2)cc1 (centres undefined), the “activity change, negative = cytotoxicity” value is reported as inactive: -12.5%.
In the case of CP(=O)(Nc1ccc(Cl)cc1)Oc1ccc(F)cc1 (centres undefined), the “activity change, negative = cytotoxicity” value is reported as inactive: -17.5%.
With COc1ccccc1OP(C)(=O)Nc1ccccc1Br (centres undefined) the “activity change, negative = cytotoxicity” value was inactive: -5.16%.
In the case of CC(C)(C)c1ccc(OP(C)(=O)O)cc1, the “activity change, negative = cytotoxicity” value is reported as inactive: -2.01%.
In the case of COc1ccc(OP(C)(=O)Nc2ccc(Br)cc2)cc1 (centres undefined), the “activity change, negative = cytotoxicity” value is reported as inactive: -17.7%.
For CCN(CC)CC(O)COC(=O)C(O)(c1ccccc1)C1CCCCC1 (centres undefined), the “activity change, negative = cytotoxicity” value was inactive: -21.9%.
For CCc1ccc(OP(C)(=O)Nc2cccnc2)cc1 (centres undefined), the “activity change, negative = cytotoxicity” value was inactive: 22.8%.
In the case of CP(=O)(Oc1ccccc1)N1CCOC1=O (centres undefined), the “activity change, negative = cytotoxicity” value is reported as inactive: -1.06%.
With O=C(OCCCN1CCCC1)C(O)(c1ccccc1)C1CCCCC1 (centres undefined) the “activity change, negative = cytotoxicity” value was inactive: -10.1%.
For OCCSCCO, the “activity change, negative = cytotoxicity” value was inactive: -8.69%.
For CP(=O)(OC12CC3CC(CC(C3)C1)C2)OC12CC3CC(CC(C3)C1)C2, the “activity change, negative = cytotoxicity” value was inactive: -34.7%.
With O=[N+]([O-])c1ccc(OP2(=O)COCCO2)cc1 (centres undefined) the “activity change, negative = cytotoxicity” value was inactive: -6.75%.
In the case of Cc1c(C(c2ccc3c(c2)OCO3)c2c(C)n(C)n(-c3ccccc3)c2=O)c(=O)n(-c2ccccc2)n1C.O=[N+]([O-])c1cc([N+](=O)[O-])c(O)c([N+](=O)[O-])c1, the “activity change, negative = cytotoxicity” value is reported as inactive: 5.18%.
With COc1ccc(OP(C)(=O)Nc2cccc(Br)c2)cc1 (centres undefined) the “activity change, negative = cytotoxicity” value was inactive: -21.4%.
For COc1ccc(NP(C)(=O)Oc2ccccc2OC)cc1 (centres undefined), the “activity change, negative = cytotoxicity” value was inactive: -9.14%.
For CN(C)CCOC(=O)C(O)(c1ccccc1)C1CCCCC1 (centres undefined), the “activity change, negative = cytotoxicity” value was inactive: -0.613%.
With CP(=O)(Nc1ccc2c(c1)OCCO2)Oc1ccccc1 (centres undefined) the “activity change, negative = cytotoxicity” value was inactive: 9.93%.
With O=[N+]([O-])c1cc([N+](=O)[O-])c(C(F)(F)F)c([N+](=O)[O-])c1O the “activity change, negative = cytotoxicity” value was inactive: -29%.
With Cc1ccccc1NP(C)(=O)Nc1ccccc1C the “activity change, negative = cytotoxicity” value was inactive: -30.3%.
For C/C1=C2N=C(/C=C3N=C(/C(C)=C4\[N-][C@@](C)([C@@H]5N=C1[C@](C)(CCC(=O)NC[C@@H](C)OP(=O)([O-])O[C@H]1[C@@H](O)[C@@H](n6cnc7cc(C)c(C)cc76)O[C@@H]1CO)[C@H]5CC(N)=O)[C@@](C)(CC(N)=O)[C@@H]4CCC(N)=O)[C@@](C)(CC(N)=O)[C@@H]\3CCC(N)=O)C(C)(C)[C@@H]/2CCC(N)=O.[C-]#N.[Co+3], the “activity change, negative = cytotoxicity” value was inactive: -24.9% [at 25.4 µM].
With CP(=O)(Nc1ccc(SC(F)(F)F)cc1)Oc1ccc(F)cc1 (centres undefined) the “activity change, negative = cytotoxicity” value was inactive: -16.8%.
For CCOP(C)(=S)SCC(=O)NC(C)(CC)C(=O)O (centres undefined), the “activity change, negative = cytotoxicity” value was inactive: -12.2%.
For O=C(OCCN1CCN(CCOCc2ccccc2)CC1)C(O)(c1ccccc1)c1ccccc1, the “activity change, negative = cytotoxicity” value was inactive: -7.84%.
In the case of CCOP(=O)(CC)Oc1ccc([N+](=O)[O-])cc1 (centres undefined), the “activity change, negative = cytotoxicity” value is reported as inactive: -21.2%.
For CP(=O)(Nc1ccccc1F)Oc1ccccc1 (centres undefined), the “activity change, negative = cytotoxicity” value was inactive: -2.17%.
With CCN(CC)CCCOC(=O)C(O)(c1ccccc1)C1CCCCC1 (centres undefined) the “activity change, negative = cytotoxicity” value was inactive: -34.4%.
For Cc1c([N+](=O)[O-])cc([N+](=O)[O-])c(Br)c1[N+](=O)[O-], the “activity change, negative = cytotoxicity” value was inactive: -25.6%.
In the case of CCCCCOc1ccc(NP(C)(=O)Oc2ccc(Cl)cc2Cl)cc1 (centres undefined), the “activity change, negative = cytotoxicity” value is reported as inactive: -3.22%.
In the case of CP(=O)(Nc1ccccc1)Oc1ccc(F)cc1 (centres undefined), the “activity change, negative = cytotoxicity” value is reported as inactive: -20.8%.
For Cc1cccc([N+](=O)[O-])c1[N+](=O)[O-], the “activity change, negative = cytotoxicity” value was inactive: 7.55% [at 114 µM].
In the case of CCOC(=O)c1ccc(NP(C)(=O)Oc2ccc(F)cc2)cc1 (centres undefined), the “activity change, negative = cytotoxicity” value is reported as inactive: -22.2%.
For CC1=NCCc2c1[nH]c1ccccc21.O=[N+]([O-])c1cc([N+](=O)[O-])c(O)c([N+](=O)[O-])c1, the “activity change, negative = cytotoxicity” value was inactive: 1.27%.
With O=[N+]([O-])c1cccc([N+](=O)[O-])c1 the “activity change, negative = cytotoxicity” value was inactive: -19% [at 126 µM].
In the case of Cc1cc(C)cc(OP(C)(=O)Nc2ccccn2)c1 (centres undefined), the “activity change, negative = cytotoxicity” value is reported as inactive: -24.2%.
In the case of CP(=O)(Nc1cccc(Br)c1)Oc1ccccc1 (centres undefined), the “activity change, negative = cytotoxicity” value is reported as inactive: -1.61%.
With Cc1ccc(C)c(NP(C)(=O)Oc2ccccc2)c1 (centres undefined) the “activity change, negative = cytotoxicity” value was inactive: -5.52%.
With COc1ccccc1OP(C)(=O)Nc1cccc(Br)c1 (centres undefined) the “activity change, negative = cytotoxicity” value was inactive: -20.9%.
In the case of Cc1cc(C)cc(OP(C)(=O)Nc2ccc(C)cc2C)c1 (centres undefined), the “activity change, negative = cytotoxicity” value is reported as inactive: 3.08%.
For CCOC(=O)c1ccc(NP(C)(=O)Oc2cc(C)cc(C)c2)cc1 (centres undefined), the “activity change, negative = cytotoxicity” value was inactive: -23.6%.
For O=[N+]([O-])c1cc([N+](=O)[O-])c(-c2cnn(-c3ccccc3)c2)c([N+](=O)[O-])c1, the “activity change, negative = cytotoxicity” value was inactive: -27.4%.
In the case of O=[N+]([O-])c1cc([N+](=O)[O-])c(-n2nnc3ccccc32)c([N+](=O)[O-])c1, the “activity change, negative = cytotoxicity” value is reported as inactive: -21%.
For CC(C)N(CCCl)C(C)C, the “activity change, negative = cytotoxicity” value was inactive: -16.6%.
With CN(Cc1cccnc1)C(=O)COc1ccc(Cl)c(Cl)c1.O=[N+]([O-])c1cc([N+](=O)[O-])c(O)c([N+](=O)[O-])c1 the Potency was active: 10 µM.
For CN1CCCCC1COC(=O)C1(O)c2ccccc2CCc2ccccc21 (centres undefined), the “activity change, negative = cytotoxicity” value was inactive: 10.2%.
For COc1ccccc1OP(C)(=O)Nc1c(C)cccc1C (centres undefined), the “activity change, negative = cytotoxicity” value was inactive: -27.8%.
With CCCOc1ccc(NP(C)(=O)Oc2ccc(Cl)cc2)cc1 (centres undefined) the “activity change, negative = cytotoxicity” value was inactive: 22.6%.
With CP(=O)(Nc1ccc(SC(F)(F)F)cc1)Oc1ccccc1 (centres undefined) the “activity change, negative = cytotoxicity” value was inactive: -19%.
In the case of CC1=C2N=C(C=C3N=C(C(C)=C4[N-][C@@](C)([C@@H]5N=C1[C@](C)(CCC(=O)NC[C@@H](C)OP(=O)([O-])O[C@H]1[C@@H](O)[C@@H](n6cnc7cc(C)c(C)cc76)O[C@@H]1CO)[C@H]5CC(N)=O)[C@@](C)(CC(N)=O)[C@@H]4CCC(N)=O)[C@@](C)(CC(N)=O)[C@@H]3CCC(N)=O)C(C)(C)[C@@H]2CCC(N)=O.[C-]#N.[Co+3], the “activity change, negative = cytotoxicity” value is reported as inactive: -36%.
In the case of CP(=S)(Nn1cnnc1)Oc1ccccc1 (centres undefined), the “activity change, negative = cytotoxicity” value is reported as inactive: -11.9%.
In the case of COc1ccccc1OP(C)(=O)Nc1ccccc1 (centres undefined), the “activity change, negative = cytotoxicity” value is reported as inactive: 29%.
In the case of CP(=O)(Nc1ccccc1Br)Oc1ccccc1 (centres undefined), the “activity change, negative = cytotoxicity” value is reported as inactive: -24.7%.
For CCOP(C)(=S)SCC(=O)NC(C)C(=O)O (centres undefined), the “activity change, negative = cytotoxicity” value was inactive: -19.3%.
With O=[N+]([O-])c1cc([N+](=O)[O-])c(O)c([N+](=O)[O-])c1.c1ccc(Oc2ccncc2)cc1 the “activity change, negative = cytotoxicity” value was inactive: -25.8%.
With CCOC(=O)c1ccc(NP(C)(=O)Oc2ccc(OC)cc2)cc1 (centres undefined) the “activity change, negative = cytotoxicity” value was inactive: -37.2%.
In the case of CP(=O)(Nc1ccccn1)Oc1ccc(Cl)cc1 (centres undefined), the “activity change, negative = cytotoxicity” value is reported as inactive: -25.5%.
In the case of CP(=O)(Oc1ccccc1)OC(c1ccccc1)C(F)(F)F (centres undefined), the “activity change, negative = cytotoxicity” value is reported as inactive: 0.544%.
In the case of CP(=O)(Nc1ccc(SC(F)(F)F)cc1)Oc1ccc(Cl)cc1 (centres undefined), the “activity change, negative = cytotoxicity” value is reported as inactive: -10.3%.
In the case of Cc1cccc(C)c1OP(C)(=O)Nc1ccc(SC(F)(F)F)cc1 (centres undefined), the “activity change, negative = cytotoxicity” value is reported as inactive: -0.672%.
In the case of Cc1cc(C)cc(OP(C)(=O)Nc2ccc(SC(F)(F)F)cc2)c1 (centres undefined), the “activity change, negative = cytotoxicity” value is reported as inactive: -9.54%.
In the case of CP(=O)(NC(=O)Nc1ccccc1)Oc1ccccc1 (centres undefined), the “activity change, negative = cytotoxicity” value is reported as inactive: 9.2%.
With CCc1ccc(OP(C)(=O)N2CCN(c3ccc([N+](=O)[O-])cc3)CC2)cc1 (centres undefined) the “activity change, negative = cytotoxicity” value was inactive: -28%.
For CCN(CC)CCCOC(=O)C(O)(c1ccccc1)c1ccccc1, the “activity change, negative = cytotoxicity” value was inactive: 35.2%.
With Cc1ccc(NP(C)(=O)Oc2ccccc2)c(C)c1 (centres undefined) the “activity change, negative = cytotoxicity” value was inactive: -4.52%.
For COc1ccccc1OP(C)(=O)Nc1ccc(C)cc1 (centres undefined), the “activity change, negative = cytotoxicity” value was inactive: -4.63%.
In the case of COc1ccc(OP(C)(=O)Nc2cccc(F)c2)cc1 (centres undefined), the “activity change, negative = cytotoxicity” value is reported as inactive: -18.2%.
With COc1ccccc1OP(C)(=O)Nc1cc(Cl)ccc1C (centres undefined) the “activity change, negative = cytotoxicity” value was inactive: -1.67%.
In the case of Cc1cc(C)cc(OP(C)(N)=O)c1 (centres undefined), the “activity change, negative = cytotoxicity” value is reported as inactive: 28.3%.
In the case of Cc1cccc(C)c1OP(C)(N)=O (centres undefined), the “activity change, negative = cytotoxicity” value is reported as inactive: -11.6%.
With O=[N+]([O-])c1ccc2c(c1)C=Nc1ccccc1O2 the “activity change, negative = cytotoxicity” value was inactive: -27.5%.

Source: PubChem BioAssay AID651635 (National Center for Advancing Translational Sciences (NCATS), 2012)
Potency is read from the fitted curve at half-maximal effect.
